## Measured affinities in a library of Ab-14 heavy chain variants

Source: Li et al. 2023 (doi:10.1038/s41467-023-39022-2), MIT Lincoln Laboratory and A-Alpha Bio; data file from the FLAb repository.

Target peptide (SARS-CoV-2 spike, HR2 region): PDVDLGDISGINAS

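Phage display of a naive human antibody library on the peptide gave the parent. Designed CDR sequences, proposed from the first random library and measured here. Their group label is 14H_GP_Gibbs (GP: Gaussian process model; Gibbs: Gibbs sampling; a sequence that several methods proposed may carry one label only). AlphaSeq pools MATa yeast showing the antibodies with MATalpha yeast showing the peptide. Mating (16 h, 30 °C) was followed by selection of diploids and sequencing of their barcodes. A regression on co-assayed BCL2-family reference pairs converts the normalised counts of each replicate to an apparent Kd. There are six technical replicates.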

Each scFv is VH, the linker GGGGSGGGGSGGGGS, VL, as in the parent Ab-14, and differs from it in the CDRs of the heavy chain only.
VH: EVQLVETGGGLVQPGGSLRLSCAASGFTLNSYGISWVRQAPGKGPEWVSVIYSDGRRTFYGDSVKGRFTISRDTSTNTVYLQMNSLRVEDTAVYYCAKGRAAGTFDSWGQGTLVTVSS
VL: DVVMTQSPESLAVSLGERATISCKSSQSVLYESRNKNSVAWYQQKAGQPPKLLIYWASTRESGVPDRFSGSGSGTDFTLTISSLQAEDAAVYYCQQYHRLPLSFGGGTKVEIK

Changes read parent residue, position, new residue, counted from the first residue of the VH shown.
Affinities are written as log10 Kd with Kd in nM; a lower number is a better binder.
A mean of the replicates is given; it leaves out those without a signal.
Where no diploid with the target was found in that replicate, the entry reads "ND": below detection, most likely a poor binder, though not proof of it.
A sequence measured in both rounds can read differently, since the two assays cover different ranges.
As a blank, each scFv also met three strains without target: over all heavy chain designs, 1% of these pairings were detected, typically at 2.08 and seldom below 0.84. Also given: how often the same scFv was detected with the empty control strains, with their mean in brackets.
In the paper, a design with two or fewer of six values counts as a poor binder.

| changes | log10 Kd (nM) by replicate | mean log10 Kd (nM) | signal with controls |
|---|---|---|---|
| S53A/A101E/S107K | 0.13 -0.36 -0.31 -0.28 -0.15 -0.21 | -0.20 | 0/18 |
| T28S/S31E/G61D/S63D/R100K | -0.27 -0.10 -0.23 -0.07 -0.21 0.13 | -0.13 | 0/18 |
| N30E/G61A/R100Q/S107T | 0.28 0.20 0.39 0.75 0.12 0.99 | 0.45 | 1/18 (1.92) |
| T28E/R100G/A101Q/S107T | 0.55 0.77 1.00 1.20 0.55 1.50 | 0.93 | 0/18 |
| G26K/T28S/G61E/A101T | 2.76 2.22 ND 2.79 2.16 1.94 | 2.37 | 0/18 |
| T28N/G61S/S63R/R100E | 0.61 0.54 1.31 0.68 0.44 0.80 | 0.73 | 0/18 |
| T28E/N30E | ND 1.02 1.26 1.21 0.58 2.91 | 1.40 | 0/18 |
| T28E/R56K/G61A/S63Q/A101T | 0.04 0.06 -0.20 -0.17 -0.19 -0.18 | -0.11 | 1/18 (2.90) |
| T28Q/G61V/R100Q/A101T | 1.71 1.59 1.82 2.45 1.56 2.11 | 1.87 | 1/18 (1.97) |
| T28G/G61A/R100K/A101V | -0.26 -0.27 -0.31 -0.08 -0.59 -0.35 | -0.31 | 0/18 |
| T28E/S63D/R100I/A101T | 0.05 -0.02 0.92 1.09 0.35 0.20 | 0.43 | 0/18 |
| T28Y/S31D/G61K/A101T | 0.68 0.74 0.79 0.86 0.55 0.77 | 0.73 | 1/18 (1.91) |
| T28E/R100V/A101T/S107V | 2.22 0.95 0.91 1.17 0.71 0.79 | 1.13 | 1/18 (1.88) |
| T28D/S63A/V64F/A101T | 1.08 -0.44 0.60 0.18 0.28 0.40 | 0.35 | 0/18 |
| T28S/S31E/G61S/R100K/S107T | 0.29 0.03 0.36 -0.05 0.01 0.19 | 0.14 | 0/18 |
| T28D/G61V/S63D/A101N | -0.05 -0.34 -0.14 -0.49 -0.51 0.19 | -0.22 | 0/18 |
| R56M/R100Q/S107L | ND 2.70 ND 0.44 ND ND | 1.57 | 0/18 |
| T28D/S31M/G61A/R100K | ND ND ND ND ND 1.05 | 1.05 | 0/18 |
| T28S/S31E/A101Q/D106S | 0.47 0.54 0.41 0.15 0.35 0.84 | 0.46 | 1/18 (3.12) |
| F27K/T28S/S63E/A101T | ND ND ND ND 2.73 ND | 2.73 | 0/18 |
| T28H/R56Q/G61V/A101T | ND ND ND 1.61 1.40 2.03 | 1.68 | 0/18 |
| T28E/R100K/A101T/S107N | ND ND ND ND ND ND | ND | 0/18 |
| N30E/G61A/S63D/S107T | 1.35 0.18 -0.13 0.59 0.35 0.08 | 0.40 | 0/18 |
| T28N/G61S/S63R/R100Q | 1.08 ND ND ND ND ND | 1.08 | 0/18 |
| F27D/T28S/A101T | 2.96 ND 2.52 ND ND 2.59 | 2.69 | 0/18 |
| G26K/T28D/G61D/A101Q | 1.19 0.57 0.50 0.32 0.55 0.90 | 0.67 | 0/18 |
| T28N/S63N/R100M/A101Q | 1.29 1.12 0.87 1.09 0.52 0.72 | 0.93 | 0/18 |
| G26P/T28E/S53A/S107V | ND ND ND ND ND ND | ND | 0/18 |
| G26M/T28E/S53A/R100E | 1.65 1.44 1.51 1.00 0.59 2.54 | 1.46 | 0/18 |
| T28D/A101M/S107D | 0.80 0.97 0.63 0.40 0.82 0.85 | 0.75 | 1/18 (1.77) |
| G26H/T28S/G61A/A101E | 0.65 -0.01 0.28 0.23 0.17 0.36 | 0.28 | 0/18 |
| G61S/S63R/R100Q/A101E/S107T | 0.41 0.12 0.85 1.09 0.20 0.24 | 0.48 | 0/18 |
| T28N/S63N/A101Q/S107T | 1.59 1.84 0.65 1.37 2.86 1.06 | 1.56 | 0/18 |
| R56I/R100Q/A101T/S107L | 1.01 0.53 1.39 1.53 1.93 1.37 | 1.29 | 0/18 |
| T28D/F59A/S107T | 0.42 0.25 0.23 -0.08 0.52 0.61 | 0.32 | 1/18 (1.09) |
| T28E/N30E/G61A/S63D | -0.29 0.97 0.81 0.74 1.40 0.92 | 0.76 | 0/18 |
| T28N/G61A/S63D/R100Q/A101E | -0.49 -0.04 -0.23 -0.43 -0.80 -0.44 | -0.40 | 0/18 |
| T28S/G61M/R100N/A101T | 0.31 -0.32 0.07 0.67 0.69 1.38 | 0.47 | 0/18 |
| T28D/R100M/A101N | 2.04 -0.38 -0.65 0.35 -0.48 -0.42 | 0.08 | 0/18 |
| T28E/S31D/G61T/R100K | 0.35 0.15 0.99 0.28 0.22 0.62 | 0.43 | 1/18 (1.39) |
| R56K/G61S/R100K/A101T/S107V | 0.44 0.21 0.19 0.39 0.17 0.21 | 0.27 | 2/18 (2.01) |
| T28E/S31K/S63Q/A101T | 1.02 0.56 ND 0.67 0.47 0.39 | 0.62 | 0/18 |
| T28S/T58W/R100Q/A101T | ND ND ND 2.71 ND ND | 2.71 | 0/18 |
| T28S/S31E/S63R/A101T/S107T | 0.19 -0.36 0.15 0.20 0.52 0.13 | 0.14 | 1/18 (1.69) |

A selection of 7 entries from above:

| changes | log10 Kd (nM) by replicate | mean log10 Kd (nM) | signal with controls |
|---|---|---|---|
| T28D/G61V/S63D/A101N | -0.05 -0.34 -0.14 -0.49 -0.51 0.19 | -0.22 | 0/18 |
| T28D/R100M/A101N | 2.04 -0.38 -0.65 0.35 -0.48 -0.42 | 0.08 | 0/18 |
| T28S/S31E/G61S/R100K/S107T | 0.29 0.03 0.36 -0.05 0.01 0.19 | 0.14 | 0/18 |
| N30E/G61A/R100Q/S107T | 0.28 0.20 0.39 0.75 0.12 0.99 | 0.45 | 1/18 (1.92) |
| T28N/G61A/S63D/R100Q/A101E | -0.49 -0.04 -0.23 -0.43 -0.80 -0.44 | -0.40 | 0/18 |
| T28S/T58W/R100Q/A101T | ND ND ND 2.71 ND ND | 2.71 | 0/18 |
| T28E/R100G/A101Q/S107T | 0.55 0.77 1.00 1.20 0.55 1.50 | 0.93 | 0/18 |